Patent publication US6506765B2 (TAP Pharmaceutical Products, Inc., priority 2000, dated 2003)

The chains behind the UniProt entries cited, without tags or fusion partners. Where a name states a change or a piece, a line headed by the entry shows the natural chain unless it says otherwise.
UniProt P18089, whole entry: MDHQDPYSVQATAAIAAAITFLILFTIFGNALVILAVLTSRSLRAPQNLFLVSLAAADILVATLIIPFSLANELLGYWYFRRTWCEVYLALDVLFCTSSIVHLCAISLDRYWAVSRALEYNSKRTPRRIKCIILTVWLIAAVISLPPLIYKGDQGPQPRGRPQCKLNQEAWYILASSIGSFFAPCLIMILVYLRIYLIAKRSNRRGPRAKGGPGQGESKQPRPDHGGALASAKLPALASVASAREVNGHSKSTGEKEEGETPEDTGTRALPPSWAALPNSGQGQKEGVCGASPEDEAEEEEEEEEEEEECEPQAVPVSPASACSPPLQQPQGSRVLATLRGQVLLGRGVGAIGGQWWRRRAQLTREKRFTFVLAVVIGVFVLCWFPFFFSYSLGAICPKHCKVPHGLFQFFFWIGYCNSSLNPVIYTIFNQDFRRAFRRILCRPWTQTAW
UniProt P11229: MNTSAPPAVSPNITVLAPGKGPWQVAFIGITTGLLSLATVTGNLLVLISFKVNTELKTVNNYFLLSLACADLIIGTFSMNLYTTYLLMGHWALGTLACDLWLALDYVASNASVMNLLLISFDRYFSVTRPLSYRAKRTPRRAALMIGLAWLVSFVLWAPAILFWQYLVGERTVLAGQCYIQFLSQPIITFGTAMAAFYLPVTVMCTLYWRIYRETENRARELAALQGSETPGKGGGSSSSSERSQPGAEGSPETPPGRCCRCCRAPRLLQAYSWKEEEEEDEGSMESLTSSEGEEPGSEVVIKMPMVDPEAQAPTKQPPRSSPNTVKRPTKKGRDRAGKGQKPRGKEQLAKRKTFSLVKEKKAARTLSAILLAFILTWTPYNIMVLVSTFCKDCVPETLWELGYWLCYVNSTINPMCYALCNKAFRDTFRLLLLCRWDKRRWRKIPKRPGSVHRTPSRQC
UniProt P25100, whole entry: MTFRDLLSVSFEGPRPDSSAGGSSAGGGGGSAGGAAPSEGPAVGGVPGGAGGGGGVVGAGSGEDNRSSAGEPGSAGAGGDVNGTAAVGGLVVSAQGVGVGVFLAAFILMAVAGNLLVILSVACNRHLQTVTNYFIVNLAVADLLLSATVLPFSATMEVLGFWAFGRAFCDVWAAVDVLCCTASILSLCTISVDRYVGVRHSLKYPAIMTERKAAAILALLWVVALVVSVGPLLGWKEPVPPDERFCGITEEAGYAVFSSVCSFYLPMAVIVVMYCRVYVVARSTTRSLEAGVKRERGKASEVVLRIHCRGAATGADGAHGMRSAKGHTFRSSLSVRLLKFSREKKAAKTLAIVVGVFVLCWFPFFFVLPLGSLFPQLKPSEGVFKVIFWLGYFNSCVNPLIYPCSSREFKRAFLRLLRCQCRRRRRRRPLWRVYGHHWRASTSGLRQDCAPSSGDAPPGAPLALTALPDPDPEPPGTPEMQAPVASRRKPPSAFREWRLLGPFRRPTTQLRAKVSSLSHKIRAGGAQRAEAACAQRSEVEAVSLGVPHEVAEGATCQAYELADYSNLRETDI

What was measured:
[1] = molecular target: Adrenergic α2B (Homo sapiens, UniProt P18089); test: radioligand binding assay, Adrenergic α2B
Description: (§1) Routine radioligand binding assays were performed using reference standards according to established methodology. IC50 values were determined by a non-linear least square regression analysis.

[2] = molecular target: muscarinic M1 (Homo sapiens, UniProt P11229); test: radioligand binding assay, muscarinic M1
Description: as §1

[3] = molecular target: Adrenergic α1D (Homo sapiens, UniProt P25100); test: radioligand binding assay, Adrenergic α1D

In the case of `CN1CCc2cccc3c2[C@H]1Cc1ccc(O)c(O)c1-3` [Apomorphine, (R)-5,6,6a,7-tetrahydro-6-methyl-4H-dibenzo-[de,g]quinoline-10,11-diol], the Ki [1] is reported as 4.1 nM, the binding activity [2] is reported as “No significant binding activity” and the Ki [3] is reported as 588 nM.
